Activity calls are given as the source filed them.
Legend:
[1] = molecular target: Histone-lysine N-methyltransferase EZH2 (Homo sapiens, UniProt Q15910); test: Inhibition of EZH2 (unknown origin) up to 100 uM
[2] = molecular target: Histone-lysine N-methyltransferase SUV39H2 (Homo sapiens, UniProt Q9H5I1); test: Inhibition of SUV39H2 (unknown origin) up to 100 uM
[3] = molecular target: T1, Histone-lysine N-methyltransferase SETD7 (Homo sapiens) (UniProt Q8WTS6); test: Inhibition of SETD7 (unknown origin) up to 100 uM
T1 sequence (whole entry): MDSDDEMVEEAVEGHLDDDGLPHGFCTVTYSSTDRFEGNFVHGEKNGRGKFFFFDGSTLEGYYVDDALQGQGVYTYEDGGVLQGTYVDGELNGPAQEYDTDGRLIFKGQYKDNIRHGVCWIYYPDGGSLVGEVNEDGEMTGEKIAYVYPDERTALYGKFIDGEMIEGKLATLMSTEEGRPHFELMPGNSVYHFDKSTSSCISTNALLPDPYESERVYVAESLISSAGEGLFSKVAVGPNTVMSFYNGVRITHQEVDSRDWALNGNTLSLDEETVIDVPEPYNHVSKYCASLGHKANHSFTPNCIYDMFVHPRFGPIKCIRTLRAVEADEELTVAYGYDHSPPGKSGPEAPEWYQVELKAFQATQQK

Protein sequences, listed by entry. Tags and fused reporters are not part of them. Lines headed by an entry give the natural chain unless they say otherwise; changes in a name come on top.
UniProt Q15910, whole entry, looked up: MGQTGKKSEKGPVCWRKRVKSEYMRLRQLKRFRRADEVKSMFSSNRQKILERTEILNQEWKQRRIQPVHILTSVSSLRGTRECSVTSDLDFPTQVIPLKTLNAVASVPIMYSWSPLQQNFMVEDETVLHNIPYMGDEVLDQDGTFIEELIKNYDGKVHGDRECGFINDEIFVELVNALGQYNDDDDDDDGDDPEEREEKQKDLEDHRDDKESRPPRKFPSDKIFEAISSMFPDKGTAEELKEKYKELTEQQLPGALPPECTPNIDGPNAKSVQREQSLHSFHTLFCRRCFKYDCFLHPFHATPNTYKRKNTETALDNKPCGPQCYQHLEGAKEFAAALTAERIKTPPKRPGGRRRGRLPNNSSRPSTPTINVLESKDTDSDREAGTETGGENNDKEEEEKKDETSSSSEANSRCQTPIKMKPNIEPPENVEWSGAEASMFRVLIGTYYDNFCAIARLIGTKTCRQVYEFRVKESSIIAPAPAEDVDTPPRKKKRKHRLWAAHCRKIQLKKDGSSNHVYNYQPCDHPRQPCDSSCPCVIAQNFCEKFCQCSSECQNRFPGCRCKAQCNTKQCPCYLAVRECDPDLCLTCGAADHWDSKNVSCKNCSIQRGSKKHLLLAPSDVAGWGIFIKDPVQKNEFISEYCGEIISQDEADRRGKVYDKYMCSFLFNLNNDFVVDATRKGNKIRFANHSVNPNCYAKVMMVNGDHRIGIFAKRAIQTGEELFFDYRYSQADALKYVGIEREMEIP
UniProt Q9H5I1: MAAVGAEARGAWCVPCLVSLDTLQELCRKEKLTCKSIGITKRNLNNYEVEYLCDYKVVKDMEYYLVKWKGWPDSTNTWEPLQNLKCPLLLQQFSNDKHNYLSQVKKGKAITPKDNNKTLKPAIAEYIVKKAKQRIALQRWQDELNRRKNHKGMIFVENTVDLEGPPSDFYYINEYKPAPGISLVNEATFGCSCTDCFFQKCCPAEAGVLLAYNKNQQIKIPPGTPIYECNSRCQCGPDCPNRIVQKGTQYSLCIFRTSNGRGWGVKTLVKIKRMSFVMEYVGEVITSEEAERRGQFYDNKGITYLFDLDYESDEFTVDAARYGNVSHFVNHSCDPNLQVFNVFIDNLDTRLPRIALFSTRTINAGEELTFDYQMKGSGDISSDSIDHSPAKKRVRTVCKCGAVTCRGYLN

Measured: inhibition

N#Cc1cn([C@@H]2O[C@H](CSCC[C@H](N)C(=O)O)[C@@H](O)[C@H]2O)c2ncnc(N)c12
inactive: all assays above

Source: ChEMBL document CHEMBL4477246, “New small molecule inhibitors of histone methyl transferase DOT1L with a nitrile as a non-traditional replacement for heavy halogen atoms” (Bioorg Med Chem Lett, 2016)
